Nrf2 block = blocks Nrf2 signaling | A549 ARE-Fluc reporter, luciferase luminescence, 18-24 h | Potency, µM (series often up to 46 µM), for inactives: top-dose activity change, negative = inhibition, hits mostly inhibitors | 360,000 tested, 2.1% active; further: potency means the concentration at half of the fitted maximal effect; on the % scale 0 is the no-effect control and ±100 the full control effect; nearly all actives have a fitted effect of over 60% in size
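Concentration-response testing used A549 ARE_Fluc cells at 5000 cells/well. Following an 18-24 h compound incubation, viability was read by fluorescence (Ex 405/Em 525) and luciferase output by luminescence.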
A549 tox = kills or reduces viability of A549 cells in Nrf2 counter-screen; 390,000 tested, 0.16% active; A549 ARE-Fluc cells, CellTiter-Fluor viability, 18-24 h; Potency, µM (series often up to 46 µM), for the others: at the highest dose activity change, negative = cytotoxicity, most hits filed as inhibitors; AID 504648; further: potency means the concentration at half of the fitted maximal effect; on the % scale 0 is the no-effect control and ±100 the full control effect
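Cytotoxicity counterscreen: CellTiter-Fluor fluorescence was measured in A549 ARE_Fluc cells after 18-24 h of compound exposure in a concentration series. The subsequent BugLite luminescent read reports ARE-luciferase activity.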
Nrf2 activator = activators of Nrf2 (ARE) signaling; 410,000 tested, 0.31% active; AREc32 ARE-luciferase reporter (MCF7-derived line), luminescence, 24 h; Potency, µM (doses to about 46.1 µM), for inactives: at the highest dose activation, most hits filed as activators; AID 624171; further: potency means the concentration at half of the fitted maximal effect; % of control where 0% means no effect; nearly all actives have a fitted effect of over 65% in size
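ARE-driven firefly luciferase activity in AREc32 cells measured after a 24 hr compound exposure at 37 deg C, using Steady-Glo reagent and a 30 min room-temperature hold.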
ClpP mod = qHTS Assay for Activators of ClpP; AID 651965, 2013; purified B. subtilis ClpP, FRET peptide cleavage, 20 min; ATP-dependent Clp protease proteolytic subunit (Bacillus subtilis (strain 168)), P80244; 340,000 tested, 1.9% active; Potency, µM (doses to about 57.5 µM), for inactives: at the top dose activity change, negative = active; active means well fitted falling curve with a large enough effect; inconclusive means small, poorly fitted or top-dose-only effect; inactive means no such curve, though single readings can be large or run the other way; further: potency means the concentration at half of the fitted maximal effect; the source files actives as falling curves though it sought activators and does not explain the sign; nearly all actives have a fitted effect of over 65% in size
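FRET quenching reversal measured ClpP activation: 10 microg/mL B. subtilis ClpP at pH 8 with the FRET-FV decapeptide, read at 430 nm after 320 nm excitation. The 20-min minus 0-min signal was scaled between DMSO/no-enzyme wells and ADEP (5.8 microM final).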
miR-21 reporter = miR-21 reporter, rising signal | HeLa miR-21 FLuc reporter, luciferase, 48 h | Potency, µM (highest dose often 38.3 µM), for inactives: at the top dose reporter change, positive = more light | 340,000 tested, under 10 active | AID 2288; active = well fitted rising curve with a large enough effect; inconclusive = small, poorly fitted or top-dose-only effect; inactive = no such curve, though single readings can be large or run the other way;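 further: % of control where 0% means no effect; miR-21 action dims this reporter so a rising signal means less miR-21 action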
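HeLa miR-21-FLuc reporter line, endogenous miR-21; 2000 cells/well in DMEM/10% FBS; compound titration up to ~40uM final, 48 h, 37 degree Celsius; luciferase detection reagent, 15 min lysis, CCD luminescence.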
IL2 activator = activators of IL-2 | AID 652025 | 360,000 tested, 0.065% active | IL-2 activation reporter assay, cell-based qHTS; stimulated with anti-CD3/CD4/CD28 beads; in transgenic mouse T cells | activation, % (series mostly up to about 46 µM); in the data active means activation above about 50%; inconclusive means mostly about 30% to 49%; further: 0% is about no effect
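Screening format: compound pinned onto unstimulated transgenic mouse T cells, 60 min incubation, then anti-CD3/anti-CD4/anti-CD28 bead stimulation for 18 hours at 37 degrees C, followed by EGFP and DsRed detection.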
An asterisk follows results filed as active; ? = inconclusive; · = no result given. Compounds with a hit are over-represented: about 3.7% of the library has one in this group of screens. Unless noted, the call rests on the fitted dose curve; in most records, active means well fitted curve in the direction sought with a large enough effect; inconclusive means small, poorly fitted or top-dose-only effect, or another doubt; inactive means no such curve, though single readings can be large; an effect the other way counts as inactive or inconclusive.

The chains behind the UniProt entries cited, without tags or fusion partners.
ATP-dependent Clp protease proteolytic subunit (Bacillus subtilis (strain 168)), P80244, UniProt P80244, whole entry, looked up: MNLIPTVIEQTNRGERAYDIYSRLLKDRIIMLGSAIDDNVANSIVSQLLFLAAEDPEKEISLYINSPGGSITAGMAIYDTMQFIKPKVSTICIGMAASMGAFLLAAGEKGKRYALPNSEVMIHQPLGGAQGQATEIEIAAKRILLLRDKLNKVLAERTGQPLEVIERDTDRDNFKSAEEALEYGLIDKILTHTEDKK

The line under a structure holds: Nrf2 block | A549 tox | Nrf2 activator | ClpP mod | miR-21 reporter | IL2 activator
- CN(C(=O)c1cccc(NC(=O)Cc2ccc(NC(=O)C3CCCN(C(=O)CCc4ccccc4)C3)cc2)c1)C1CCC1 (stereo unspecified)
    16µM* | -13% | 4% | 0% | · | 0
- CN(C(=O)c1ccc(NC(=O)Cc2cccc(NC(=O)C3CCCN(C(=O)CCc4ccccc4)C3)c2)cc1)C1CCCC1 (stereo unspecified)
    15µM* | -15% | 4% | -1% | · | -2
- CN(Cc1ccccc1)C(=O)c1cccc(NC(=O)Cc2ccc(NC(=O)C3CCCN(C(=O)CCc4ccccc4)C3)cc2)c1 (stereo unspecified)
    ? | -2% | 6% | -2% | · | 0
- CCOC(=O)Cn1c(=O)n(CC2CCCO2)c2nc(-c3cc(OC)ccc3OC)nc(C(N)=O)c21 (stereo unspecified)
    · | 3% | 4% | -1% | 4% | ·
- CCOC(=O)c1cccc(NC(=O)c2cc3c(=O)n(Cc4ccccc4)ccc3nc2C)c1
    -1% | -1% | 2% | 5% | 18% | ·
- Cc1ccc(CCNC(=O)c2sc3nc4n(c(=O)c3c2C)CCCC4)cc1
    -2% | 0% | 5% | -6% | -1% | ·
- COc1ccc2nc(C)cc(SCC(=O)N/N=C/c3cccc4ccccc34)c2c1
    16µM* | 23µM* | 0% | ? | 18% | -1
- O=C(CCN1C(=O)/C(=C/c2ccccc2)SC1=S)N1CCCCCC1
    21µM* | ? | ? | · | 0% | -6
- CN1CCN(C(=O)CCN2C(=O)/C(=C\c3ccc(Cl)cc3Cl)SC2=S)CC1
    ? | 7.3µM* | 13µM* | · | 6% | -4
- O=C(OCC(=O)N1CCOCC1)c1cnc(Cl)c(Cl)c1
    -17% | -1% | 17% | 0% | · | 0
- CC1CN(C(=O)COC(=O)c2cnc(Cl)c(Cl)c2)CC(C)O1 (stereo unspecified)
    3% | -1% | 15% | 32µM* | · | 1
- CC(C)(C)OC(=O)N1CCC(c2c(C(=O)NCc3ccc4c(c3)OCO4)cnn2-c2ccc(F)cc2F)CC1
    ? | -13% | 1% | 2% | 24% | ·
- O=C(C[n+]1cccc2cc(Cl)ccc21)c1ccc2ccccc2c1
    · | · | · | -2% | · | ·
- COc1ccc2cc(/C=C/C(=O)N3CCN(CC(=O)N4CCCCCC4)CC3)ccc2c1
    21µM* | -15% | 5% | 1% | -17% | -1
- CCC(C)(C)n1nnnc1C(c1cc2cc3c(cc2[nH]c1=O)OCO3)N1CCN(C)CC1 (stereo unspecified)
    2% | 1% | 0% | 8.9µM* | -1% | -4

Pulled by compound from above:
The line under a structure holds: Nrf2 block | A549 tox | Nrf2 activator | ClpP mod | miR-21 reporter | IL2 activator
- CN(C(=O)c1cccc(NC(=O)Cc2ccc(NC(=O)C3CCCN(C(=O)CCc4ccccc4)C3)cc2)c1)C1CCC1 (stereo unspecified)
    16µM* | -13% | 4% | 0% | · | 0
- CCOC(=O)Cn1c(=O)n(CC2CCCO2)c2nc(-c3cc(OC)ccc3OC)nc(C(N)=O)c21 (stereo unspecified)
    · | 3% | 4% | -1% | 4% | ·
- CC1CN(C(=O)COC(=O)c2cnc(Cl)c(Cl)c2)CC(C)O1 (stereo unspecified)
    3% | -1% | 15% | 32µM* | · | 1

Copied from the list.
O=C(CCN1C(=O)/C(=C/c2ccccc2)SC1=S)N1CCCCCC1 in Nrf2 block reads 21µM*
CCC(C)(C)n1nnnc1C(c1cc2cc3c(cc2[nH]c1=O)OCO3)N1CCN(C)CC1 (stereo unspecified) in ClpP mod reads 8.9µM*
CN(Cc1ccccc1)C(=O)c1cccc(NC(=O)Cc2ccc(NC(=O)C3CCCN(C(=O)CCc4ccccc4)C3)cc2)c1 (stereo unspecified) in A549 tox reads -2%
CC1CN(C(=O)COC(=O)c2cnc(Cl)c(Cl)c2)CC(C)O1 (stereo unspecified) in A549 tox reads -1%

Next part
The line under a structure holds: Nrf2 block | A549 tox | Nrf2 activator | ClpP mod | miR-21 reporter | IL2 activator
- CC(C)(C)n1nnnc1C(c1cc2cc3c(cc2[nH]c1=O)OCCO3)N1CCSCC1 (stereo unspecified)
    12% | -9% | 0% | 25µM* | -11% | -2
- COc1ccc2cc(C(c3nnnn3C(C)(C)C)N3CCSCC3)c(=O)[nH]c2c1 (stereo unspecified)
    5% | -6% | -1% | -7% | -8% | -1
- CCC(C)(C)n1nnnc1C(c1cc2ccc(OC)cc2[nH]c1=O)N1CCCCC1 (stereo unspecified)
    1% | 0% | 2% | -27% | -7% | -4
- Cc1ccc(-c2nnc3ccccc3c2C(=O)Nc2cccc(Cl)c2)cc1
    ? | 12% | 1% | 0% | -41% | ·
- Cc1ccc(-n2ncc3c2CCCC3NC(=O)c2ccoc2)cc1C (stereo unspecified)
    ? | -11% | 0% | -1% | 4% | -4
- COCc1ccc(C(=O)NC2CCCc3c2cnn3-c2ccc(C)c(C)c2)o1 (stereo unspecified)
    15µM* | -6% | -1% | 4% | 16% | -5
- CCOC(=O)C(=Cc1ccc(-n2cncn2)cc1)C(=O)OCC
    18µM* | ? | ? | · | ? | -4
- O=C1C(N2CCOCC2)=C(n2nnc3ccccc32)C(=O)c2ccccc21
    23µM* | 23µM* | -2% | 0% | ? | 0
- O=C1c2ccccc2C(=O)c2c1cccc2-n1nnc2ccccc21
    -5% | 2% | 0% | · | -1% | -1
- CN(C)c1ccc(/C=C(\C#N)C(=O)Nc2nc3c(s2)CCN(Cc2ccccc2)C3)cc1
    ? | -14% | 3% | 0% | -3% | 59*
- COc1ccc(NC(=O)CN2C(=O)CCn3nc(-c4cccn4C)cc32)cc1
    · | -3% | 0% | -2% | -2% | ·
- Oc1cccc2ccc(/C=C/c3ccccc3Br)nc12
    6% | 2% | 10µM* | · | 1% | -1
- Oc1cccc2ccc(/C=C/c3cccs3)nc12
    · | 0% | 3.2µM* | -6% | -34% | 2
- COc1cccc(CNc2nc3nc(C)c(Cl)c(C)n3n2)c1
    6% | 0% | 0% | 32µM* | -69% | -2
- Cc1nc2nc(Cc3ccccc3)nn2c(C)c1Cl
    2% | -10% | -1% | -6% | -21% | -2

Other structures.
The line under a structure holds: Nrf2 block | A549 tox | Nrf2 activator | ClpP mod | miR-21 reporter | IL2 activator
- Cc1nc2nc(NCc3cccs3)nn2c(C)c1Cl
    26% | -8% | 0% | 13µM* | -43% | 3
- Cc1nc2nc(COc3ccccc3)nn2c(C)c1Cl
    ? | -2% | 3% | 14µM* | -28% | 0
- CN(C)S(=O)(=O)N1CCC(Oc2cccc(C(=O)NCCC3=CCCCC3)c2)CC1
    ? | -14% | 0% | 25µM* | 25% | -5
- CS(=O)(=O)N1CCC(Oc2cccc(C(=O)NCCCC3CCCC3)c2)CC1
    26µM* | -12% | 0% | 0% | · | -4
- COc1cccc(CNC(=O)c2sc3ncccc3c2-n2c(C)ccc2C)c1OC
    · | -14% | 1% | 4% | 30% | ·
- Cc1ccc(CNC(=O)c2cnc(N(C)C)nc2)cc1
    · | -1% | 0% | -18% | -12% | ·
- Cc1cccn2c(=O)c(C(=O)NC(C)c3ccccc3)c(O)nc12 (stereo unspecified)
    6.5µM* | ? | 0% | 4% | ? | ·
- O=S(=O)(c1ccc2c(c1)OCCO2)N1CCN(S(=O)(=O)c2ccc(Br)cc2F)CC1
    -4% | -6% | · | · | · | ·
- Cc1ccc(Nc2nc3ccccc3[nH]2)nc1
    ? | -1% | 4% | 35µM* | -41% | -2
- CCc1ccccc1Nc1nc2ccccc2[nH]1
    15µM* | -1% | 0% | -1% | · | 0
- COc1ccccc1Nc1nc2ccccc2[nH]1
    · | -1% | 8% | 0% | -18% | 0
- Cc1ccc(C)c(C(=O)Nc2nc3ccccc3[nH]2)c1
    ? | 9% | 2% | · | -27% | 0

Screens from PubChem BioAssay.
